Experimental findings from patent US20240158494A1 (Biogen, published 2024) are described below.

The target in assay [1] is T1, cynomolgus monkey transferrin receptor 1 (TfR1), full length, expressed on cells (cynomolgus monkey, UniProt Q5RDH6 1-760 (Pongo abelii entry)).
T1 construct: also called cyno TfR1; cyTfR
Nature of the assay: FACS on Ba/F3 cells, Fab supernatant.

Assay [2] has as its target T2, human transferrin receptor 1 (TfR1), full length, expressed on cells (human, UniProt P02786 1-760).
T2 construct: also called human TfR1; huTfR
Put plainly: FACS on Ba/F3 cells, Fab supernatant.

The EC50 is the concentration needed to bring the measured effect to its halfway point.

B1: TfR1 ANTIBODY-A HC-H4 hIgG1 Fab′(1C)/LC-L1 hKappa (Fab, V domains shown)
VH: QSLVESGGGLVQPGGSLRLSCKASGIDFSSSGYMAWVRQAPGKGLEWVGAIYTYSSNTYYASWAKGRFTISKTSSTTVYLQMNSLKTEDTAVYYCARGTYGYTGYTYTMGYFSLWGPGTLVTVSS
VL: DIQMTQSPSTLSASVGDRVTITCQASQNINSYLAWYQQKPGKAPKLLIYRASTLASGVPSRFSGSGSGTEFTLTISSLQPDDFATYYCQSYYYSGSSNYNAFGGGTKVEIKR
In the case of B1, the EC50 in assay [1] is > 21 nM.

B2: TfR1 ANTIBODY-A HC-H0C hIgG1 Fab′(1C)/LC-L1 hKappa (Fab, V domains shown)
VH: EVQLVESGGGLVQPGGSLRLSCAASGIDFSSSGYMCWVRQAPGKGLEWVGCIYTYSSNTYYAASVKGRFTISRDDSKNSLYLQMNSLKTEDTAVYYCARGTYGYTGYTYTMGYFSLWGQGTLVTVSS
VL: DIQMTQSPSTLSASVGDRVTITCQASQNINSYLAWYQQKPGKAPKLLIYRASTLASGVPSRFSGSGSGTEFTLTISSLQPDDFATYYCQSYYYSGSSNYNAFGGGTKVEIKR
Regarding B2, the values for the EC50 in assay [2] and in assay [1] were 3.2 nM and ~22 nM, respectively.

B3: TfR1 ANTIBODY-A HC-H0C hIgG1 Fab′(1C)/LC-L2 hKappa (Fab, V domains shown)
VH: EVQLVESGGGLVQPGGSLRLSCAASGIDFSSSGYMCWVRQAPGKGLEWVGCIYTYSSNTYYAASVKGRFTISRDDSKNSLYLQMNSLKTEDTAVYYCARGTYGYTGYTYTMGYFSLWGQGTLVTVSS
VL: ELDMTQSPSTLSASVGDRVTITCQASQNINSYLAWYQQKPGKAPKLLIYRASTLASGVPSRFSGSGSGTEFTLTISSLQPDDFATYYCQSYYYSGSSNYNAFGGGTKVEIKR
notes: also called ANTIBODY-A H0C/L2
For the molecule B3, in assay [1], the concentration for a half-maximal effect (EC50) is ~32 nM.

B4: TfR1 ANTIBODY-A HC-H3 hIgG1 Fab′(1C)/LC-L1 hKappa (Fab, V domains shown)
VH: QSLVESGGGLVQPGGSLRLSCKASGIDFSSSGYMAWVRQAPGKGLEWVGAIYTYSSNTYYASWAKGRFTISKDSKNSVYLQMNSLKTEDTAVYYCARGTYGYTGYTYTMGYFSLWGPGTLVTVSS
VL: DIQMTQSPSTLSASVGDRVTITCQASQNINSYLAWYQQKPGKAPKLLIYRASTLASGVPSRFSGSGSGTEFTLTISSLQPDDFATYYCQSYYYSGSSNYNAFGGGTKVEIKR
As to B4, the EC50 in assay [1] was > 26 nM.

B5: TfR1 ANTIBODY-A HC-H3 hIgG1 Fab′(1C)/LC-L0 hKappa (Fab, V domains shown)
VH: QSLVESGGGLVQPGGSLRLSCKASGIDFSSSGYMAWVRQAPGKGLEWVGAIYTYSSNTYYASWAKGRFTISKDSKNSVYLQMNSLKTEDTAVYYCARGTYGYTGYTYTMGYFSLWGPGTLVTVSS
VL: DIQMTQSPSTLSASVGDRVTITCQASQNINSYLAWYQQKPGKAPKLLIYRASSLESGVPSRFSGSGSGTEFTLTISSLQPDDFATYYCQSYYYSGSSNYNAFGGGTKVEIKR
As for B5, the EC50 in assay [1] is ~19 nM.

B6: TfR1 ANTIBODY-A HC-H0C hIgG1 Fab′(1C)/LC-L0 hKappa (Fab, V domains shown)
VH: EVQLVESGGGLVQPGGSLRLSCAASGIDFSSSGYMCWVRQAPGKGLEWVGCIYTYSSNTYYAASVKGRFTISRDDSKNSLYLQMNSLKTEDTAVYYCARGTYGYTGYTYTMGYFSLWGQGTLVTVSS
VL: DIQMTQSPSTLSASVGDRVTITCQASQNINSYLAWYQQKPGKAPKLLIYRASSLESGVPSRFSGSGSGTEFTLTISSLQPDDFATYYCQSYYYSGSSNYNAFGGGTKVEIKR
For B6, the EC50 worked out at 1.9 nM in assay [2] and 11.5 nM in assay [1].

B7: TfR1 ANTIBODY-A HC-H4 hIgG1 Fab′(1C)/LC-L2 hKappa (Fab, V domains shown)
VH: QSLVESGGGLVQPGGSLRLSCKASGIDFSSSGYMAWVRQAPGKGLEWVGAIYTYSSNTYYASWAKGRFTISKTSSTTVYLQMNSLKTEDTAVYYCARGTYGYTGYTYTMGYFSLWGPGTLVTVSS
VL: ELDMTQSPSTLSASVGDRVTITCQASQNINSYLAWYQQKPGKAPKLLIYRASTLASGVPSRFSGSGSGTEFTLTISSLQPDDFATYYCQSYYYSGSSNYNAFGGGTKVEIKR
Take B7: the EC50 in assay [1] is > 64 nM.

B8: TfR1 ANTIBODY-A HC-H3 hIgG1 Fab′(1C)/LC-L2 hKappa (Fab, V domains shown)
VH: QSLVESGGGLVQPGGSLRLSCKASGIDFSSSGYMAWVRQAPGKGLEWVGAIYTYSSNTYYASWAKGRFTISKDSKNSVYLQMNSLKTEDTAVYYCARGTYGYTGYTYTMGYFSLWGPGTLVTVSS
VL: ELDMTQSPSTLSASVGDRVTITCQASQNINSYLAWYQQKPGKAPKLLIYRASTLASGVPSRFSGSGSGTEFTLTISSLQPDDFATYYCQSYYYSGSSNYNAFGGGTKVEIKR
As to B8, the half-maximal effective concentration (EC50) in assay [1] was > 38 nM.

B9: TfR1 ANTIBODY-A HC-H4 hIgG1 Fab′(1C)/LC-L0 hKappa (Fab, V domains shown)
VH: QSLVESGGGLVQPGGSLRLSCKASGIDFSSSGYMAWVRQAPGKGLEWVGAIYTYSSNTYYASWAKGRFTISKTSSTTVYLQMNSLKTEDTAVYYCARGTYGYTGYTYTMGYFSLWGPGTLVTVSS
VL: DIQMTQSPSTLSASVGDRVTITCQASQNINSYLAWYQQKPGKAPKLLIYRASSLESGVPSRFSGSGSGTEFTLTISSLQPDDFATYYCQSYYYSGSSNYNAFGGGTKVEIKR
As for B9, the EC50 in assay [1] was > 29 nM.
